Assay [1] deals with T1, Toll-like receptor 7 (Homo sapiens) (UniProt Q9NYK1).
T1 sequence (whole entry): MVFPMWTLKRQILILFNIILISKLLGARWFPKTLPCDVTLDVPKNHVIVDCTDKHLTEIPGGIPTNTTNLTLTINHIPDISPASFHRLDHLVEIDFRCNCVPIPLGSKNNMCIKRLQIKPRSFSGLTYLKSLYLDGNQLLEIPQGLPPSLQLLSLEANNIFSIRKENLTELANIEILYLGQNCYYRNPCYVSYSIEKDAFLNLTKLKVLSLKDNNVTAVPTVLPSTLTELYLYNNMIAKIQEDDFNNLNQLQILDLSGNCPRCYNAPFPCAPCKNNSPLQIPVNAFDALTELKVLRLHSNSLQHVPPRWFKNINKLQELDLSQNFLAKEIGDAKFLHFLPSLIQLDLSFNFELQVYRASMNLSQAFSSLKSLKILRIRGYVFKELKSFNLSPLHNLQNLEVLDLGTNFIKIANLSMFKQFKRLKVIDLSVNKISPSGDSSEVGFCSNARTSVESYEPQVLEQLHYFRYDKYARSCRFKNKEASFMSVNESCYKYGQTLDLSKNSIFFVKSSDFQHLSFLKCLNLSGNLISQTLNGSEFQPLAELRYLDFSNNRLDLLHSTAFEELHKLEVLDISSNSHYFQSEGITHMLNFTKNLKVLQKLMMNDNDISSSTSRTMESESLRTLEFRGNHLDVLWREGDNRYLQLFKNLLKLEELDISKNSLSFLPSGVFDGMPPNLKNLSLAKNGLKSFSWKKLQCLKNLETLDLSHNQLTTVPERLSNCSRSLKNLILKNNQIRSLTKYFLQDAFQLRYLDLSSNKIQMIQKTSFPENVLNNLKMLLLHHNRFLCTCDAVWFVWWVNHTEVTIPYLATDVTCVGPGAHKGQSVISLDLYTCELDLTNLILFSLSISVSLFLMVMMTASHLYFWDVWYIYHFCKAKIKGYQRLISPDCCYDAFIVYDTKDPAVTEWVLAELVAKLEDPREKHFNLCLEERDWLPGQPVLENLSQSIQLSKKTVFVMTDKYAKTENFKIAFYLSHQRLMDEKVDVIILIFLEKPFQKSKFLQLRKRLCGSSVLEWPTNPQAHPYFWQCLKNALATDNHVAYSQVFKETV
The assay can be described thus: Agonist activity at human TLR7 expressed in HEK293 cells incubated for 6 hrs by luciferase reporter gene assay relative to resiquimod. The assay is classed as cell-based. The gist of the method:
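HEK293 stably carrying NF-κB-firefly luciferase reporter plus human TLR7 (best resiquimod-responding clone), maintained under puromycin/blasticidin. 25 000 cells per well in DMEM with 3% FCS.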

Assay [2] concerns the target T1, Toll-like receptor 7 (Homo sapiens). Nature of the assay: Agonist activity at TLR7 in human PBMC assessed as induction of IL-6 secretion in supernatant after 18 hrs relative to resiquimod. The assay is classed as cell-based. The gist of the method:
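Isolated human PBMCs washed in PBS, resuspended in RPMI1640 with 10% heat-inactivated FBS, pyruvate, HEPES, at 1 × 10⁶ cells/mL. Compounds as in-situ sodium salts from 10 mM aqueous stocks, 3-fold 10-point dilutions from 30 μM.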

Take `COc1ccc(CCc2cnc3c(N)nc4cc(/C=C(\F)P(=O)(O)O)ccc4c3c2)c(C)c1`: the %max was found to be 100% in assay [1] and 40% in assay [2].
On the same counts, the results for `Cc1ccc2c(c1)nc(N)c1ncc(CCc3ccc(OCCCC(F)(F)P(=O)(O)O)cc3C)cc12` are 97% and 31%.
On the same counts, the results for `Cc1cc(OCCCP(=O)(O)O)ccc1CCc1cnc2c(N)nc3cc(CCC(=O)O)ccc3c2c1` are 107% and 46%.
On the same counts, the results for `COc1ccc(CCc2cnc3c(N)nc4cc(CCP(=O)(O)O)ccc4c3c2)c(C)c1` are 146% and 107%.
As to `COc1ccc(CCc2cnc3c(N)nc4cc(/C=C/P(=O)(O)O)ccc4c3c2)c(C)c1`, the figures for the %max in assay [1] and in assay [2] were 148% and 90%, respectively.
On the same counts, the results for `Cc1ccc2c(c1)nc(N)c1ncc(CCc3ccc(OCCCP(=O)(O)O)cc3C)cc12` are 94% and 26%.
As to `COc1ccc(CCc2cnc3c(N)nc4cc(C(=O)C(F)(F)P(=O)(O)O)ccc4c3c2)c(C)c1`, the values for the %max in assay [1] and in assay [2] were 87% and 56%, respectively.
